Target: Adenosine receptor A2a (Homo sapiens, UniProt P29274)
Assay: Displacement of [3H]SCH58261 from human recombinant A2A receptor expressed in HEK293 cells
Type: cell-based

Row | Ki [nM] | SMILES
1 | 7.7 | COCCCn1c(NC(=O)c2cccc(C#N)c2)nc2cc(C(=O)N3CCCC[C@H]3C)cnc21
2 | 11 | COCCCn1c(NC(=O)c2cccc(C#N)c2)nc2cc(C(=O)N3CCCC[C@@H]3C)cnc21

— ChEMBL document CHEMBL1268900, “Discovery of 2-aminoimidazopyridine adenosine A(2A) receptor antagonists” (Bioorg Med Chem Lett, 2010)
